Test results published in patent publication US11559058B2, “Synergistic antimicrobial effects among rosemary extract, cultured dextrose and buffered vinegar” (KALAMAZOO HOLDINGS, INC., priority 2019, dated 2023).

System: Salmonella enterica serovar typhimurium (ATCC® 14028™)
Assay: Growth inhibition in brain heart infusion broth (OD600, delta growth, percentage inhibition)
Assay type: cell-based
Settings: BHI pH 5.2, 37° C., 24 hours, chloramphenicol 0.02%
Experimental: Salmonella enterica serovar typhimurium (ATCC® 14028™) was obtained from ATCC (Manassas, Va.). Alternatively, lactic acid bacteria including Propionibacterium spp., Lactococcus lactis, Lactobacillus reuteri, may be used in the assay as representative microbial sources. Brain heart infusion broth (BD, Sparks, Md.) was used as a growth medium and the pH was adjusted to pH 5.2 with HCl. Chloramphenicol (Sigma, St. Louis, Mo.) was used as a positive control. All cultures were incubated at 37° C. with agitation at 220 rpm for 24 hours. Growth was determined by measuring the optical density at 600 nm (OD600) with BIOTEK PowerWave HT 340 spectrophotometer (BIOTEK, Winooski, Vt.). Delta growth was calculated by subtracting the growth measured at 0 hours from the growth measured at 24 hours. Percentage inhibition was calculated by the following equation: [formula] All experiments were performed in triplicate. Rosemary essential oil (RO), buffered vinegar (BV), and cultured dextrose (CD) was tested for synergistic antimicrobial activity against S. typhimurium. Prior to synergy testing, minimum inhibitory concentration (MIC) of each compound was determined. The concentrations showing sub-inhibitory or no inhibitory effect were used for synergy test. Two-way synergy was determined by the following equations: Percentage inhibition of [a% rosemary essential oil and b% cultured dextrose mix]>Percentage inhibition of [a% rosemary essential oil]+Percentage inhibition of [b% cultured dextrose] Percentage inhibition of [a% rosemary essential oil and c% buffered vinegar mix]>Percentage inhibition of [a% rosemary essential oil]+Percentage inhibition of [c% buffered vinegar] Percentage inhibition of [b% cultured dextrose and c% buffered vinegar mix]>Percentage inhibition of [b% cultured dextrose]+Percentage inhibition of [c% buffered vinegar] Test for Three-Way Synergy The concentration of rosemary essential oil, buffered vinegar, and cultured dextrose used for the three-way synergy test was designed to have slight synergistic antimicrobial effects when two agents were combined, but not showing 100% inhibition against S. typhimurium. Three-way synergy was determined when all of the following conditions were met: Percentage inhibition of [a% rosemary essential oil and b% cultured dextrose and c% buffered vinegar mix]>Percentage inhibition of [a% rosemary essential oil]+Percentage inhibition of [b% cultured dextrose]+Percentage inhibition of [c% buffered vinegar] Percentage inhibition of [a% rosemary essential oil and b% cultured dextrose and c% buffered vinegar mix]>Percentage inhibition of [a% rosemary essential oil and b% cultured dextrose mix]+Percentage inhibition of [c% buffered vinegar] Percentage inhibition of [a% rosemary essential oil and b% cultured dextrose and c% buffered vinegar mix]>Percentage inhibition of [a% rosemary essential oil and c% buffered vinegar mix]+Percentage inhibition of [b% cultured dextrose] Percentage inhibition of [a% rosemary essential oil and b% cultured dextrose and c% buffered vinegar mix]>Percentage inhibition of [b% cultured dextrose and c% buffered vinegar mix]+Percentage inhibition of [a% rosemary essential oil] […] Growth was determined by measuring the optical density at 600 nm. Delta growth was calculated by subtracting the growth measured at 0 hours from the growth measured at 24 hours. […]

For `O=C(N[C@H](CO)[C@H](O)c1ccc([N+](=O)[O-])cc1)C(Cl)Cl` [Chloramphenicol], the “Inhibition (%)” value (Example 1, rosemary essential oil 0.50%, cultured dextrose 0.16%, combination 0.5% + 0.16%) was 97%, the “Inhibition (%)” value (Example 2, rosemary essential oil 0.50%, buffered vinegar 0.0625%, combination 0.5% + 0.0625%) was 99% and the “Inhibition (%)” value (Example 3, cultured dextrose 0.16%, buffered vinegar 0.0625%, combination 0.16% + 0.0625%) was 98%. For the same compound, the “Inhibition (%)” value (Example 4, rosemary essential oil 0.50%, cultured dextrose 0.112%, buffered vinegar 0.044%, same concentrations in combinations) was 99% and the “Inhibition (%)” value (Example 5, cultured dextrose 0.2%, buffered vinegar 0.065%, clove oil 0.025%, thyme oil 0.03%, pimento leaf oil 0.05%, same concentrations in combinations) was 100%.
